Tests used:
[1] = target: T1, human NOP (Homo sapiens, UniProt P41146); test: Calcium mobilization assay, CHO cells with NOP receptor and chimeric G protein; assay type: cell-based; set-up: expressed in transfected cells
Protocol: Chinese hamster ovary (CHO) cells stably coexpressing the human NOP, μ, or κ opioid receptors and the Gαqi5 protein or the human δ and the GαqG66Di5 protein were used in this assay. , Cells were cultured in DMEM/F-12 (1:1) medium supplemented with 10% FBS, 2 mM L-glutamine, […], 100 IU/mL penicillin, and 100 IU/mL streptomycin. Cells were maintained at 37 °C in a humidified atmosphere with 5% CO2 and were seeded at 50 000 cells/well into 96-well black, clear-bottom plates 24 h before test. Loading for 45 min with a solution consisting of HBSS supplemented with 2.5 mM probenecid, 3 μM Fluo-4 AM, and 0.01% pluronic acid ensures the calcium-sensitive dye (Fluo-4) reaches the needed concentration inside the cell, while the exchange of the solution with 100 μL/well of buffer consisting of HBSS with 20 mM HEPES, 2.5 mM probenecid, and 500 μM Brilliant Black allows for fluorescence background to decrease. Serial dilutions of ligands were prepared in HBSS buffer with 20 mM HEPES and 0.02% bovine serum albumin (BSA) to minimize the ligands’ stickiness to plasticware. The automated microplate reader FlexStation II (Molecular Devices, CA, US) was employed at 37 °C to detect changes in fluorescence intensity. The effects of all compounds were expressed as the maximum change in percentage over the baseline fluorescence measured in samples treated with vehicles. […]

[2] = target: T1, human NOP; test: NOP receptor–G protein interaction BRET assay; assay type: biochemical; set-up: expressed in transfected cells; host or cells: membranes of HEK293 cells stably coexpressing NOP-RLuc and Gβ1-RGFP; details: N = 5 experiments in duplicate
Protocol: A BRET interaction assay was used, as previously detailed in ref , to study the propensity of ligands to evoke interaction between the NOP receptor and to G protein. Membranes taken from HEK293 cells stably coexpressing the fusoproteins NOP-RLuc and Gβ1-RGFP were used. Such cells were grown in DMEM medium supplemented with 10% FBS, 2 mM L-glutamine, […] G418, […] hygromycin B, 100 IU/mL penicillin, and 100 IU/mL streptomycin in a humidified atmosphere with 5% CO2 at 37 °C. Cell membranes were thawed and resuspended in PBS supplemented with 0.01% BSA before the assay, and an amount of 3 μg of total protein was dispensed in each of the 96 wells together with 2 μM Prolume Purple Coelenterazine. All experiments were carried out at room temperature. Ligands were added, and averaged BRET ratios from 10 min measurements were computed. […]
Concentration-response curves to agonists were analyzed by a four-parameter logistic nonlinear regression model: Effect = baseline + (E max – baseline)/(1 + 10^((logEC50–log[ligand])slope)). […] Experimental data were expressed as mean ± sem of at least 5 experiments. Potency values were expressed as the mean and CL95%. In vitro E max values were analyzed by one-way ANOVA, while in vivo latency data were evaluated by one-way ANOVA followed by Dunnett’s post hoc test. […]

Substance: [[Cys^15]N/OFQ-NH2]2 (FGGFTGARKSARKLCNQ; C-terminal amide; Cys15 disulfide-bonded to Cys15 of the second copy) [1i]
- Ca^2+ mobilization pEC50 (CL95%) ([1]; CHO cells coexpressing human NOP and Gαqi5, Fluo-4, 37 °C, mean (CL95%), N = 5 experiments in duplicate): 8.53(7.78–9.28)
- Ca^2+ mobilization E max ± sem ([1]; CHO cells coexpressing human NOP and Gαqi5, maximum change in percentage over baseline fluorescence, mean ± sem, N = 5 in duplicate): 297 ± 26 % over the baseline
- NOP–G protein interaction E max ± sem ([2]; effects normalized to N/OFQ-NH2 (E max = 1), mean ± sem): 0.95 ± 0.03
- NOP–G protein interaction pEC50 (CL95%) ([2]; membranes from HEK293 cells coexpressing NOP-RLuc and Gβ1-RGFP, room temperature, mean (CL95%)): 9.71 (8.95–10.48)

— article PMC12621184, “Synthesis and Pharmacological Characterization of Nociceptin/Orphanin FQ Dimeric Ligands” (Journal of Medicinal Chemistry, 2025)
